Measured affinities in a library of Ab-14 light chain variants

All variants were tested on one target, the spike HR2 peptide PDVDLGDISGINAS (SARS-CoV-2).

Parent scFv Ab-14: VH joined to VL by the linker GGGGSGGGGSGGGGS. Changes lie in the light chain CDRs alone.
VH: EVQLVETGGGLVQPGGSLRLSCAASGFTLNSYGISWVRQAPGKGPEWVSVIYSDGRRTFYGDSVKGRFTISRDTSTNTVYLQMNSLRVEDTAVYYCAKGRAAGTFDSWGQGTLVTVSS
VL: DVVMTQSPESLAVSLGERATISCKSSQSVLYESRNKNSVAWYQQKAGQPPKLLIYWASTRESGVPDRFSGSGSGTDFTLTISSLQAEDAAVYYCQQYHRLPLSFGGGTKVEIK

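Library AAYL50 holds single substitutions and randomly drawn double and triple substitutions in the CDRs. Affinity was read by AlphaSeq, a pooled yeast mating assay with surface-displayed partners. After mating in shaken culture at 30 °C for 16 h, diploids were selected and their barcode pairs sequenced. Read counts were normalised to the haploid input and turned into Kd by a linear fit to BCL2-family pairs of known affinity, for each replicate. There are three technical replicates.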

Variants are written as CDR1, CDR2 and CDR3 of the light chain (limits as in the source). Parent: KSSQSVLYESRNKNSVA, WASTRES, QQYHRLPLS.
The read-out is the apparent dissociation constant on a log10 scale (nM): the lower, the stronger.
An entry "nd" has no value in the source: the pair was not observed among the diploids in that replicate. This suggests poor binding but is not conclusive.

Variant KSSQSVLYESMNKNSVA | WASTREG | QQYHRDPLS gave 5.63, nd, nd (controls 2 of 9).
Variant KSSQSVLYESWNVNSVA | WASTRER | QQYHRLPLS gave 1.08, 1.28, 1.02 (controls 1 of 9).
Variant KSSQSVLYCSRNKNSIA | WASTRES | QQYHRLPCS gave nd, nd, 2.98 (controls 0 of 9).
Variant KSSQSVLYESRNKNSVA | FWSTRES | QQYHRLPLS gave nd, nd, nd (controls 1 of 9).
Variant KSSQSVLYEKRNKNSVA | WASTRLS | QQYHRLPLG gave 2.28, 2.00, 3.18 (controls 1 of 9).
Variant RSSQSVLYESRNKNSVA | WAMTRES | QQKHRLPLS gave 1.72, 1.84, 2.30 (controls 3 of 9).
Variant KSSQSVLYESRNCNSVA | WASNRES | QDYHRLPLS gave 1.33, 1.41, 1.47 (controls 1 of 9).
Variant KSSQSVLYESRNKNDVA | WVSTRRS | QQYHRLPLS gave 2.99, 2.55, 2.41 (controls 1 of 9).
Variant KSSQSVLYISRNKRSCA | WASTRES | QQYHRLPLS gave nd, nd, nd (controls 1 of 9).
Variant KSSQSVLYNSRNKNSVA | FTSTRES | QQYHRLPLS gave 1.33, 1.53, 1.47 (controls 1 of 9).
Variant KSPQSVLYESRNKNSCA | WASTRES | QGYHRLPLS gave nd, nd, nd (controls 3 of 9).
Variant KSSQSVTYESRGKNSVA | WASTRES | QQYHRLSLS gave 0.72, 0.98, 0.97 (controls 1 of 9).
Variant KSSQSVLEESRNKNSVA | WHSTRES | YQYHRLPLS gave nd, nd, nd (controls 1 of 9).
Variant KSSQSVLYESRFKNSYA | DASTRES | QQYHRLPLS gave nd, nd, nd (controls 0 of 9).
Variant KSSQSVLYEQRNKNSVA | WASTRES | QQKGRLPLS gave nd, nd, nd (controls 1 of 9).
Variant KSSQSVLYESRNSNSVA | WASTRER | QQYHRLPLR gave 0.57, 0.75, 0.69 (controls 3 of 9).
Variant KSSQSVLYESRNKNSVA | WASTKHS | PQYHRLPLS gave nd, 4.22, nd (controls 2 of 9).
Variant KSSQSVLYESRNKNSVA | WAYTFES | QQYHRLPAS gave nd, nd, nd (controls 2 of 9).
Variant KSSQSVLYESRNKVHVA | WFSTRES | QQYHRLPLS gave nd, nd, nd (controls 2 of 9).
Variant KSSQSVLYESRNKNSVA | WASTRES | QQDHRPALS gave nd, nd, nd (controls 2 of 9).
Variant FSSQSVLYSSRNKNSVA | WATTRES | QQYHRLPLS gave 1.50, 1.63, 1.60 (controls 3 of 9).
Variant KDSQSVLYESRNKNTVA | WASTSES | QQYHRLPLS gave nd, nd, nd (controls 1 of 9).
Variant KSSQSVLYESRNKNSVA | WASIRES | QQYHRLPLS gave 1.11, 1.20, 1.23 (controls 5 of 9).
Variant KSSQSWLYESHNKNSVA | WASTRES | QQYHTLPLS gave 0.51, 0.86, 0.74 (controls 0 of 9).
Variant KSSQSVLYESRNKNSVA | WASTRES | QHYHGAPLS gave nd, nd, nd (controls 3 of 9).
Variant KSSQSVLYESRNKNYEA | WASTRES | QEYHRLPLS gave nd, nd, nd (controls 1 of 9).
Variant KSSQHVLYESRNKNSVE | WASTREP | QQYHRLPLS gave 4.75, 5.35, 3.82 (controls 5 of 9).
Variant KSSQSVLYETRNKNDVA | WASTRES | QQYHRLPLC gave nd, nd, nd (controls 0 of 9).
Variant KSSQSVLYESRNKNSVA | WASAREQ | QTYHRLPLS gave nd, nd, nd (controls 0 of 9).
Variant KSSQSVLYESRNKNSVA | WASTRED | QQYHRGPLN gave nd, nd, nd (controls 1 of 9).
Variant KSHQSVLYESRNKNSVA | WASTRNS | QQKHRLPLS gave nd, nd, 4.18 (controls 1 of 9).
Variant KSSQSVLYESRNTNSVA | WASTRES | QQYARLPLS gave 0.56, 0.66, 0.53 (controls 0 of 9).
Variant KSSQSVLYESRNKNSVA | WASTRES | QQYHRLPLD gave nd, nd, nd (controls 0 of 9).
Variant KSSQSVLYESRNWNSVA | WASTRES | QQYIRLPLD gave 0.74, 1.08, 0.51 (controls 2 of 9).
Variant KSSQSVLYESRNKNSVA | WKSTELS | QQYHRLPLS gave nd, nd, nd (controls 0 of 9).
Variant KSSQSVLYESRYKDSVA | WASTREH | QQYHRLPLS gave 1.98, 1.80, 1.72 (controls 3 of 9).
Variant KSSQSVLYESRNKHSVA | WMSTRES | QQYHRLVLS gave nd, nd, nd (controls 0 of 9).
Variant KSSQSVNYESRNKNSVA | WASTRES | SQYHLLPLS gave nd, nd, 4.31 (controls 4 of 9).
Variant KNSQSVLYESRNKNSVA | RASTRES | QQYRRLPLS gave 0.37, 0.59, 0.46 (controls 1 of 9).
Variant KSSQSVLYESRNKNSVA | WASTRES | QQGHPHPLS gave nd, nd, nd (controls 0 of 9).
Variant KSSQWVLKESRNKNSVA | WASTRES | QQYHRLVLS gave nd, 5.28, nd (controls 2 of 9).
Variant KSSQSVLYESANKNSKA | WASTRES | QQYERLPLS gave nd, 3.12, 6.16 (controls 4 of 9).

Picked from the list: the 4 lowest averages where every replicate gave a value.

CDR-L1,CDR-L2,CDR-L3,"log10 Kd, replicates",empty controls
KNSQSVLYESRNKNSVA,RASTRES,QQYRRLPLS,"0.37, 0.59, 0.46",1/9
KSSQSVLYESRNTNSVA,WASTRES,QQYARLPLS,"0.56, 0.66, 0.53",0/9
KSSQSVLYESRNSNSVA,WASTRER,QQYHRLPLR,"0.57, 0.75, 0.69",3/9
KSSQSWLYESHNKNSVA,WASTRES,QQYHTLPLS,"0.51, 0.86, 0.74",0/9

Three control strains display no target. For library AAYL50, 18% of the pairings with them gave a signal, with a median of 4.19 and one signal in twenty below 2.99, so weak values seen in few replicates may be background. Also given: how often the same scFv was detected with the empty control strains.

Values reported by Engelhart et al. 2022, doi:10.1038/s41597-022-01779-4 (FLAb copy).